{
  "source": "BindingDB's records for doi:10.1038/nbt1059",
  "about": "(Plexxikon, 2005)",
  "molecular_target": "cAMP-specific 3',5'-cyclic phosphodiesterase 4D [372-376,381-715,S375G,I381V,S383G,G384S,V385H,K386M) (Homo sapiens, UniProt Q08499, S375G/I381V/S383G/G384S/V385H/K386M)",
  "experiment": "Phosphodiesterase (PDE) Inhibition Assay",
  "description": "Phosphodiesterase activities were assayed in the presence of inhibitor compounds. Measurement takes advantage of the selective binding of 5-AMP or 5-GMP (and not cAMP or cGMP) to yttrium silicate beads with embedded scintillant. Hydrolysis is quantified by reading in a scintillation counter (Trilux, Wallac). The cAMP and cGMP concentrations used were far below the Km of PDE.",
  "data": [
    {"smiles": "CCOC(=O)c1c(C)nn(-c2ccccc2)c1C", "note": "[ethyl 3,5-dimethyl-1-phenyl-1H-pyrazole-4-carboxylate]", "values": [
      {"measurement": "IC50", "result": 270, "unit": "nM"}
    ]}
  ]
}
